# Test results reported in PubChem BioAssay AID465 (The Scripps Research Institute Molecular Screening Center, 2006).
# The list shows a part of the results, in another mix than the full data. Active and inactive are the calls of the source.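 The calls were made as follows: active = inhibition above the mean of all tested compounds plus 3 SD (cut at about 40% in these data); inactive = the rest.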
# Experiment: inhibitors of PMA/ionomycin-induced NF-kB reporter, primary screen, antigen receptor NF-kB inhibitor project, cell-based, HEK-293 luciferase reporter, luminescence (AID 465);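 also: 0% = stimulated DMSO wells and 100% = 10 µM reference inhibitor 5653914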
# Details: HEK-293 NF-kB luciferase reporter, at 3 µM, stronger effect = higher value
row,SMILES,inhibition
1,c1nnnn1CCn1cnnn1,inactive: 4.2%
2,O=P(Nc1nccs1)(c1ccccc1)c1ccccc1,inactive: 19.4%
3,O=C(OC1CN2CCC1CC2)c1cccc(Cl)c1 (stereo not drawn),inactive: 8.7%
4,COC(=O)c1cc2c(s1)N=C(c1ccccc1)N(C)P2(=O)N1CCOCC1 (stereo not drawn),inactive: 20.6%
5,O=P1(Nc2nc3ccc(Cl)cc3s2)COc2ccccc2O1 (stereo not drawn),inactive: 3.9%
6,Cc1c2non([O-])c-2c(C)[n+](=O)[n+]1[O-],inactive: 18.3%
7,CCc1nc2c(n1)c1c(non1O)c1c2no[n+]1[O-],inactive: 30.8%
8,O=C(COc1ccccc1)OC1CN2CCC1CC2 (stereo not drawn),inactive: -13.8%
9,COP1(=S)c2c(C)nn(CCC#N)c2N=C(c2ccc(F)cc2)N1C (stereo not drawn),inactive: 9.6%
10,O=C(OC1CN2CCC1CC2)C12CC3CC(CC(C3)C1)C2 (stereo not drawn),inactive: 18.3%
11,CCOP1(=S)c2c(C)nn(CCC#N)c2N=C(c2ccc(F)cc2)N1C (stereo not drawn),inactive: 12.6%
12,O=P(Nc1nccs1)(c1ccccc1)c1nc2ccccc2s1 (stereo not drawn),inactive: -2%
13,CCOP1(=S)c2c(C)nn(CCC#N)c2N=C(c2ccccc2F)N1C (stereo not drawn),inactive: 15.8%
14,O=P1(Nc2ccc(Br)cn2)COc2ccccc2OC1,inactive: 16.9%
15,O=P1(Nc2ncccn2)COc2ccccc2OC1,inactive: 8.3%
16,Cc1nn(-c2ccccc2)c2c1P(=O)(N1CCOCC1)N(C)C(c1ccccc1)=N2 (stereo not drawn),inactive: 7.4%
17,Clc1n[nH]nc1-c1nn[nH][15n]1,inactive: -9%
18,O=P1(Nc2ccccn2)COc2ccccc2OC1,inactive: 6.2%
